Data as given in US5580865A, “2,2-disubstituted cephem sulphones” (Farmitalia Carlo Erba S.r.l., priority 1992, dated 1996).

Biological target: T1, human leukocyte elastase (HLE) (Homo sapiens, UniProt P08246)
T1 construct: purchased Calbiochem
T1 sequence (P08246 30-247 limits assumed): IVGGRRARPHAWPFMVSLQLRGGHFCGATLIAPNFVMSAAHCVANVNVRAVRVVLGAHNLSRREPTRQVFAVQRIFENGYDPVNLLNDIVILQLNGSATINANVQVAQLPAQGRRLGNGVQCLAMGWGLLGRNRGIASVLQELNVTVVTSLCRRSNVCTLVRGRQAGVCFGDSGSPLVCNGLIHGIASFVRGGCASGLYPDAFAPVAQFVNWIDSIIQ
Experiment: Kinetic parameters of HLE inhibition (fluorogenic substrate, steady-state KI^ss and K5/KI)
Type: biochemical
Settings: HLE (Calbiochem), 37° C., pH 7.4 phosphate buffer, 1% DMSO, 1% MeCN; read-out: K5 /KI (rate of formation of the HLE-inhibitor complex)

In the case of `CO[C@H]1C(=O)N2C(C(=O)C(C)(C)C)=C(CSc3nnnn3C)C(Sc3nnnn3C)S(=O)(=O)C12` (stereo partly shown) [Ref. 2, reference compound], the kinact/KI is reported as 26000 M⁻¹ s⁻¹.
